Laboratory results published in patent US11236080B2, “Protein kinase inhibitors” (Princeton Drug Discovery Inc, priority 2016, dated 2022).

Experiments:
[1] = tested on: diffuse large B-cell lymphoma cell line SU-DHL-4; assay: Cell inhibition assay (PrestoBlue cell viability); format: cell-based; conditions: Homo sapiens, SU-DHL-4, 48 h, 48 h incubation; read-out: IC50 inhibition of growth of SU-DHL-4
Method: (§1) Cell lines of SU-DHL-4 (ATCC® CRL-2957™), K-562 (ATCC® CCL-243™), and Mino (ATCC® CRL-3000™) were purchased from American Type Culture Collection (ATCC, Manassas, Va.). SU-DHL-4 cells and Mino cells grew in ATCC-formulated RPMI-1640 medium (ATCC) supplemented with 10% fetal bovine serum (FBS)(Gibco, Life Technologies) (complete medium) a T-75 flask at 37° C. under 5% CO2 with saturated humidity. K-562 cells grew in ATCC-formulated Iscove's Modified Dulbecco's Medium (IMDM) supplemented with 10% FBS (Gibco, Life Technologies) (complete medium) a T-75 flask at 37° C. under 5% CO2 with saturated humidity. When the cells grew to a concentration of approximately 1×10^6 cells/mL, they were diluted to 2.5-5×10^4 cells/mL with the corresponding complete medium for each cell line. […] The absorptions at 570 and 600 nm were measured with a SpectraMaxMicroplate reader (Molecular Devices). The absorbance at 570 nm was normalized to that at 600 nm. The normalized absorbance at 570 nm was used for IC50 calculation following the median-effect plot method (TC Chou. Theoretical basis, experimental design, and computerized simulation of synergism and antagonism in drug combination studies. Pharmacol Rev. 2006; 58:621-681).

Mino cells = assay: Cell inhibition assay (PrestoBlue cell viability); format: cell-based; conditions: Homo sapiens, 48 h incubation, read-out: IC50 inhibition of growth of Mino
Method: as §1

IC50 [1]: < 20 nM
SMILES: [2H]c1cc(C)c(NC(=O)c2cnc(Nc3cc(N4CCN(CCO)CC4)nc(C)n3)s2)c(Cl)c1
IC50 (Mino cells): < 50 nM
